For one compound, Ki results are on record in patent US8026252B2 (priority 2005, dated 2011).

Sequences of proteins named here, by UniProt entry; tags and fusion partners are left off.
UniProt P35372, whole entry: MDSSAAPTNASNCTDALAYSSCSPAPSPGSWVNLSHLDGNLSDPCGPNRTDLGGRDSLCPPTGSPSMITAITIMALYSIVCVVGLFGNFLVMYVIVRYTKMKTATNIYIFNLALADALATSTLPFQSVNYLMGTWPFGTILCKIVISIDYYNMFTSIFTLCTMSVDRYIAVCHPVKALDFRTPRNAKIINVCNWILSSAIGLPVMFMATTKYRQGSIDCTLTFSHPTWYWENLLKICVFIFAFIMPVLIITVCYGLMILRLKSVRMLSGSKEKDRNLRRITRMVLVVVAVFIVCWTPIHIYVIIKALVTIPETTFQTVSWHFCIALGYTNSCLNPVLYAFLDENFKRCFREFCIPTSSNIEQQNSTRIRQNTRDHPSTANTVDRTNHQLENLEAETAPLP

The target of the experiment is T1, human μ opioid receptor (Homo sapiens, UniProt P35372).
T1 construct: expressed in transfected cells
The experiment can be described thus: biochemical. The format is binding. The note with it: [3H]DAMGO (μ).

The structures appear in SMILES notation.

In turn, `CC(Cc1ccc(-c2ccccc2)cc1)NC(=O)c1ccc2c(c1)[C@@]1(C)CCN(CC3CC3)C(C2)[C@@H]1C` (stereo partly shown) [Example 47] yielded a Ki of 7.8 ± 0.99 nM.

Broadly, the Ki is a dissociation constant, usually derived from enzyme kinetics or from competition with a known ligand. High values mean a looser hold on the target, low ones a stronger hold on the target.
